Only a part is listed here, and it is no random draw. Calls of active or inactive are those of the source.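 The calls were made as follows: active = inhibition above 20% in each of the two 10-compound mixture wells holding the compound; inactive = the rest.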
target: Complement C1s subcomponent (Homo sapiens) (UniProt P09871); assay: human C1s inhibition by compound pools – biochemical, 10-compound mixtures, primary screen (AID 538); settings: purified C1s, fluorogenic AMC substrate, pooled mixtures; screened at 5 µM (by protocol);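 also: 0% = enzyme wells lacking compound mixture and 100% = no-enzyme blank wells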

Amino acid sequences for entries named in this document (tags omitted). A change or cut given only in a name is not applied to a line headed by its entry.
UniProt P09871: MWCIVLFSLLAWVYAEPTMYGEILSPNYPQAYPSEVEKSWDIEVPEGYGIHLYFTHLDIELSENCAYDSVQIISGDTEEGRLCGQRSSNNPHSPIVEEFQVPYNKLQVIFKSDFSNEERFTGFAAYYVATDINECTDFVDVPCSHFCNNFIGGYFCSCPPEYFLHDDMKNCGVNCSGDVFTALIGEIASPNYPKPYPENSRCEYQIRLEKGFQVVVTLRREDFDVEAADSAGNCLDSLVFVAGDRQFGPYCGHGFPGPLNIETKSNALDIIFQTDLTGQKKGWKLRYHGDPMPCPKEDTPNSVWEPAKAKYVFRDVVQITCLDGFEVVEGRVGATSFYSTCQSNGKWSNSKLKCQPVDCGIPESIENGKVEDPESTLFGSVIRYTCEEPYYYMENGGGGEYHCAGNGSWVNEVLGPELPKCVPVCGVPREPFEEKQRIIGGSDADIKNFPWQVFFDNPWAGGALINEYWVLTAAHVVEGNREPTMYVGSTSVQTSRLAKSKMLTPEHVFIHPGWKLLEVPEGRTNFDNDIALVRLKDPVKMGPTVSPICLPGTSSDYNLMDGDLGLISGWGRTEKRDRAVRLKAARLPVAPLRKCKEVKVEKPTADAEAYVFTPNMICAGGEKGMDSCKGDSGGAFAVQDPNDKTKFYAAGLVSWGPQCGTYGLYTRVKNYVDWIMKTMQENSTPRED

Row | Compound | mean inhibition % of two 10-compound mixtures (active compounds read high)
1 | CCOP1(=S)c2c(C)nn(CCC#N)c2N=C(c2ccc(F)cc2)N1C (stereo not given) | inactive: -0.21%
2 | CCOP1(=S)c2c(C)nn(CCC#N)c2N=C(c2ccccc2F)N1C (stereo not given) | inactive: -23.7%
3 | O=P(Nc1nccs1)(c1ccccc1)c1nc2ccccc2s1 (stereo not given) | inactive: -3.73%
4 | Cc1cccc(OCC(=O)OC2CN3CCC2CC3)c1 (stereo not given) | inactive: -25.7%
5 | Clc1n[nH]nc1-c1nn[nH][15n]1 | inactive: 2.99%
6 | O=P1(Nc2ccccn2)COc2ccccc2OC1 | inactive: 13.6%
7 | Cc1ccc(OCC(=O)OC2CN3CCC2CC3)cc1 (stereo not given) | inactive: -26.8%
8 | O=P1(Nc2ccc(Br)cn2)COc2ccccc2OC1 | inactive: -11.9%
9 | O=P1(Nc2ncccn2)COc2ccccc2OC1 | inactive: 15.2%
10 | Cc1nn(-c2ccccc2)c2c1P(=O)(N1CCOCC1)N(C)C(c1ccccc1)=N2 (stereo not given) | inactive: -14.7%
11 | O=C(COc1ccccc1)OC1CN2CCC1CC2 (stereo not given) | inactive: 12.3%
12 | COP1(=S)c2c(C)nn(CCC#N)c2N=C(c2ccc(F)cc2)N1C (stereo not given) | inactive: 7.35%
13 | O=C(OC1CN2CCC1CC2)C12CC3CC(CC(C3)C1)C2 (stereo not given) | inactive: -7.05%
14 | Cc1c2non([O-])c-2c(C)[n+](=O)[n+]1[O-] | inactive: 1.06%
15 | CCc1nc2c(n1)c1c(non1O)c1c2no[n+]1[O-] | inactive: -0.875%
16 | O=C(OC1CN2CCC1CC2)c1cccc(Cl)c1 (stereo not given) | inactive: -6.64%
17 | c1nnnn1CCn1cnnn1 | inactive: -2.29%
18 | O=P(Nc1nccs1)(c1ccccc1)c1ccccc1 | inactive: -15.5%
19 | O=P1(Nc2nc3ccc(Cl)cc3s2)COc2ccccc2O1 (stereo not given) | inactive: 2.02%
20 | COC(=O)c1cc2c(s1)N=C(c1ccccc1)N(C)P2(=O)N1CCOCC1 (stereo not given) | inactive: 27.4%
